AlphaSeq binding of Ab-14 light chain variants to a spike HR2 peptide

The measurements come from Li et al. 2023 (doi:10.1038/s41467-023-39022-2) through the FLAb antibody collection.

All variants were tested on one target, the spike HR2 peptide PDVDLGDISGINAS (SARS-CoV-2).

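The variants were designed computationally from a first round of random CDR variants and then made and measured. Their group label is 14L_En_Gen (En: ensemble of fine-tuned language models; Gen: genetic algorithm). The scFvs were displayed on barcoded MATa yeast, the peptide on MATalpha yeast. The frequency of each diploid, read from paired DNA barcodes, reflects how well the two displayed proteins bind. Scores were corrected for input abundance and mapped to Kd with protein pairs of known affinity run in the same pool. Each pool was mated in six replicate cultures.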

Ab-14 is the parent antibody, in scFv form: VH, then three GGGGS repeats, then VL. The heavy chain is unchanged in all variants.
VH: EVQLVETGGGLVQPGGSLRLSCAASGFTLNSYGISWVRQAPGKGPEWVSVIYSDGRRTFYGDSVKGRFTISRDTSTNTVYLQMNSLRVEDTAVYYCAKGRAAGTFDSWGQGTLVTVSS
VL: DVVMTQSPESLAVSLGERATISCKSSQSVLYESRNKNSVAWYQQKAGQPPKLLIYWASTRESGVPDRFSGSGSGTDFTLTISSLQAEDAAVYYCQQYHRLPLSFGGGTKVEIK

Each variant is given by its three light chain CDRs, as the data file delimits them; those of the parent are KSSQSVLYESRNKNSVA, WASTRES, QQYHRLPLS.
Scale: log10 of Kd in nM, estimated from mating counts; low values are strong binders.
The mean shown is taken over the replicates in which the pair was detected.
A pair that was not seen in that replicate is written "n.d."; this usually means weak binding, but a binder can also be missed.
Values of this round are not directly comparable with the first-round values of the same sequences.
Background: pairings of all light chain designs with three empty control strains gave a value in 4% of cases (median 2.64, 5th percentile 1.59). Values in that range, when seen in few replicates, are hard to tell from nonspecific mating. The control count says in how many pairings with the empty strains this scFv gave a signal, with their mean in brackets.
The parent sequence was in this pool as ten entries: three were never detected, three once, and four in most replicates, with averages from 0.34 to 2.37.
In the paper, a design with two or fewer of six values counts as a poor binder.

| CDR-L1 | CDR-L2 | CDR-L3 | log10 Kd, replicates | log10 Kd (nM), mean | control signals |
|---|---|---|---|---|---|
| TISMHTSLFSQTINNVA | EVSEREQ | QQYDRLPLV | 1.26 / 1.53 / 1.13 / 1.74 / 1.26 / 1.55 | 1.41 | 1 of 18 (2.76) |
| KIGMTLNQLYEKQNNVA | DLVEREN | QQYHRLPLS | 0.33 / 0.63 / 0.72 / 0.47 / 0.52 / 0.83 | 0.58 | 0 of 18 |
| HMSVLTLQGMRHRNSVA | QMTTREN | QQYDHLPLS | n.d. / n.d. / n.d. / n.d. / n.d. / n.d. | n.d. | 0 of 18 |
| TISGMTNQAMSKHNSVA | NVTMRPE | QQYHRLPLS | 0.59 / 0.81 / 0.98 / 0.94 / 0.89 / 0.63 | 0.81 | 1 of 18 (1.33) |
| TISQLHNMGTFAINSVA | QASIRNE | QQYDRLPLQ | 1.14 / 1.21 / 0.78 / 1.04 / 1.14 / 1.28 | 1.10 | 3 of 18 (3.06) |
| IVSQLMLIGMHAKNSIA | EAEKRIN | QQYHRLPLM | n.d. / 1.23 / 1.86 / 1.95 / 2.57 / 1.42 | 1.81 | 0 of 18 |
| MVSQLMLWGLHMKNSIA | EAVTRFN | QQYDRLPLI | n.d. / 2.78 / n.d. / n.d. / n.d. / n.d. | 2.78 | 0 of 18 |
| KIGMTLNQLMQKKNNVA | DLVEREQ | QQYHRLPLS | 0.51 / -0.05 / 0.12 / 0.00 / 0.28 / -0.04 | 0.14 | 0 of 18 |
| KISQMTRVGMTHSNSIA | EEVTRAK | QQYHRLPLS | 1.69 / 0.71 / 0.97 / 0.69 / 0.71 / 0.86 | 0.94 | 1 of 18 (2.03) |
| TISDVLNTLTKTGNNVA | DLAERED | QQYFRLPLS | 0.50 / 0.55 / 0.27 / 0.34 / 0.49 / 0.64 | 0.47 | 0 of 18 |
| TISQMTSLFSQTINNVA | EVSTREA | QQYDRLPLM | 0.88 / 0.53 / 0.57 / 0.27 / 0.38 / 0.94 | 0.59 | 1 of 18 (2.82) |
| KISQMVRVGATHSNSIA | EEQTRAK | QQYHRLPLS | 0.81 / 0.94 / 0.35 / 0.64 / 0.55 / 1.03 | 0.72 | 0 of 18 |
| KIGMTLNQLMHKKNNVA | DLVMREN | QQYFRLPLS | 2.38 / 0.42 / 0.96 / 0.78 / 0.69 / 1.14 | 1.06 | 1 of 18 (2.33) |
| MVSQLMVWGLHAKNSIA | EAQMRLN | QQYDRLPLF | 1.99 / 2.28 / 2.32 / 1.66 / 2.28 / 3.02 | 2.26 | 0 of 18 |
| QLSSITGHQSMIKNNVA | EMETREN | QQYDRLPLS | 0.47 / 0.97 / 0.41 / 0.28 / 0.77 / 0.52 | 0.57 | 1 of 18 (2.37) |
| MLTQMTGWGMKASNSVA | QASTRFE | QQYHRLPLI | 1.08 / 1.05 / 1.41 / 1.23 / 1.25 / 1.72 | 1.29 | 0 of 18 |
| NISHFMDVTAKHNNNVA | EMTMREN | QQYHHLPLS | 1.74 / 1.09 / 0.78 / 1.18 / 0.83 / 1.68 | 1.22 | 1 of 18 (3.17) |
| MLHESTGLMSHKQSSIA | DNSTRED | QQYDRLPLS | 0.93 / 0.51 / -0.24 / 0.11 / 0.27 / 0.40 | 0.33 | 2 of 18 (1.88) |
| HMSMLTLGGMRNRNSVA | QMTTREN | QQYDRLPLA | 1.47 / n.d. / n.d. / n.d. / 2.62 / 2.67 | 2.25 | 0 of 18 |
| KFSQMVNSMSVSHSAVA | EMSTRED | QQYNRLPLS | -0.07 / 0.54 / 0.30 / 0.08 / 0.25 / 0.04 | 0.19 | 0 of 18 |
| KIGMTLNSLMHKKNNVA | DLVERAN | QQYFRLPLS | 0.80 / 0.60 / 0.75 / 0.14 / 0.28 / 0.45 | 0.51 | 1 of 18 (1.09) |
| KLSMLTEMEHVNRNSVA | ELVTRVN | QQYNRLPLS | n.d. / n.d. / n.d. / n.d. / n.d. / 1.63 | 1.63 | 1 of 18 (0.70) |
| TIGAQLMYGMRNRSNVA | EVSQRLN | QQYDRLPLF | 1.86 / 3.32 / 2.13 / 2.52 / 2.42 / 1.93 | 2.36 | 2 of 18 (2.76) |
| KLSLITGHLSVSKNNVA | EMATREN | QQYDRLPLS | 1.25 / 2.31 / n.d. / 1.62 / 0.77 / 2.28 | 1.65 | 1 of 18 (1.55) |
| KLSTITGHMSVSKNNVA | EMETREK | QQYDRLPLS | 1.25 / 0.80 / 0.53 / 1.74 / 1.40 / 1.17 | 1.15 | 0 of 18 |
| KISESMYFAQFNKQSIA | EVSTRSK | QSYNRLPLS | 0.82 / 0.94 / 0.49 / 1.10 / 0.63 / 1.04 | 0.84 | 0 of 18 |
| TIGQSLMQGIRNRSNVA | EVSQRLN | QQYDRLPLI | 0.69 / 0.81 / 0.44 / 0.57 / 0.94 / 1.15 | 0.77 | 1 of 18 (1.93) |
| KLASVTGTEKVHGNNVA | EMETREK | QQYNRLPLA | 0.00 / 0.19 / -0.24 / 0.11 / 0.40 / 0.55 | 0.17 | 0 of 18 |
| IVSQLMLWGMHAKNSIA | EASTRLN | QQYERLPLF | n.d. / 3.12 / n.d. / 2.66 / 2.58 / 3.23 | 2.90 | 1 of 18 (2.77) |
| SLGLVTMLEYAGRNSVA | NNSTRES | QQYDRLPLS | n.d. / n.d. / n.d. / n.d. / n.d. / n.d. | n.d. | 0 of 18 |
| KLTNVTGTEKVRGNNVA | EMETRER | QQYNRLPLS | 1.75 / 0.42 / 0.26 / 0.71 / 0.69 / 1.15 | 0.83 | 0 of 18 |
| MISQLMNIGTFAINSVA | QASLRCN | QQYDRLPLI | 3.05 / n.d. / n.d. / 2.64 / n.d. / 2.72 | 2.80 | 2 of 18 (2.60) |
| MVSQLMLWGHLAKNSIA | EAEHRCN | QQYDRLPLI | 1.61 / 2.16 / 1.08 / n.d. / 2.34 / n.d. | 1.80 | 0 of 18 |
| TLSQMSGLEAVKHNSVA | ENSTREN | QQYDRLPLS | n.d. / n.d. / n.d. / 1.59 / 2.14 / 1.81 | 1.85 | 0 of 18 |
| HLSAMWGLESVKHNNVA | ENTTREQ | QQYDRLPLS | n.d. / 2.92 / n.d. / 3.08 / 3.70 / 3.23 | 3.23 | 0 of 18 |
| HITYGMQVAGRHSSSIA | QAEERAK | QQYDRLPLS | 0.89 / 0.93 / 0.55 / 0.64 / 0.72 / 0.56 | 0.71 | 1 of 18 (1.78) |
| TISSVMQTQSHSKSNVA | EVSMRLE | QQYVRLPLA | 1.16 / 0.50 / 0.86 / 0.82 / 0.78 / 1.10 | 0.87 | 5 of 18 (2.92) |
| IVSQMMLWGLHAKNSIA | EAVTRYN | QQYDRLPLF | 1.92 / 1.47 / n.d. / 2.39 / 1.88 / 1.70 | 1.87 | 0 of 18 |